Columns and labels:
MOR [1] = biological target: MOR (Mus musculus, UniProt P42866); assay: GTP turnover assay (GTPase-GLO) with purified MOR and Gi; assay type: biochemical; conditions: for inhibition of fentanyl-induced GTP turnover: fentanyl (5 μM)
MOR [2] = biological target: MOR (Homo sapiens, UniProt P35372); assay: TRUPATH assay, Gi/o/z activation by orthosteric μOR agonists; assay type: cell-based; conditions: in the presence of compound A3
male C57BL/6J mice = assay: 55° C. warm-water tail-withdrawal assay (antinociception); assay type: in vivo, mouse; conditions: fentanyl (0.4 mg/kg)

SMILES: CNC(=O)[C@@H](Cc1ccc(C)c(OC)c1)NC(=O)CSc1ccc2ccccc2c1-c1cncc(OCc2ccccc2)c1
- inhibition of fentanyl-induced GTP turnover (MOR [1]): does not display full inhibition even at 20 μM

SMILES: CNC(=O)C(Cc1ccc(C)c(OC)c1)NC(=O)CSc1ccc2ccccc2c1-c1cncc(OCc2ccccc2)c1 (racemic) [Compound A3, 2-(2-((1-(5-(benzyloxy)pyridin-3-yl)naphthalen-2-yl)thio)acetamido)-3-(3-methoxy-4-methylphenyl)-N-methylpropanamide]
- decrease of observed potency of morphine, fentanyl, and met-enkephalin (MOR [2]): ≥ 10 fold
- inhibition of fentanyl-induced GTP turnover (MOR [1]): potently inhibit fentanyl (5 μM)-induced GTP turnover
- potentiation of naloxone antagonism of fentanyl-induced antinociception (male C57BL/6J mice): this effect was not observed against fentanyl (0.4 mg/kg)-induced antinociception

SMILES: CNC(=O)[C@H](Cc1ccc(C)c(OC)c1)NC(=O)CSc1ccc2ccccc2c1-c1cncc(OCc2ccccc2)c1 [Compound B1, (S)-2-(2-((1-(5-(benzyloxy)pyridin-3-yl)naphthalen-2-yl)thio)acetamido)-3-(3-methoxy-4-methylphenyl)-N-methylpropanamide]
- inhibition of fentanyl-induced GTP turnover (MOR [1]): retains the ability to potently inhibit fentanyl (5 μM)-induced GTP turnover

SMILES: CNC(=O)[C@H](Cc1ccc(C#N)cc1)NCc1csc(-c2cccc(-c3ccc4cc(N)ccc4c3)c2)n1 [Compound A1]
- effect on GTP turnover with other orthosteric ligands (MOR [1]; naloxone, MP, met-enkephalin, DAMGO, BU72): enhances the efficacy of all orthosteric agonists

Reference: patent US20260191856A1 (priority 2022, published 2026)
